In ChEMBL document CHEMBL1128495, “Synthetic chemical diversity: solid phase synthesis of libraries of C2 symmetric inhibitors of HIV protease containing diamino diol and diamino alcohol cores” (J Med Chem, 1995) one finds IC50 data, which are given here for two compounds.

The test addresses Human immunodeficiency virus type 1 protease (Human immunodeficiency virus 1, UniProt Q72874). The test is described as follows: Inhibition of HIV protease. Put shortly:
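Fluorometric HIV protease activity assay on unpurified samples. Concentrations were calculated from the weight of unpurified material, with no correction for impurities. Each sample was tested at 3–5 concentrations where feasible, and IC50 was derived from the percent-inhibition data.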

As for `COc1cc(CC(=O)N[C@H](C(=O)N[C@@H](Cc2ccccc2)[C@@H](O)[C@H](O)[C@H](Cc2ccccc2)NC(=O)[C@@H](NC(=O)Cc2cc(OC)c(OC)c(OC)c2)C(C)C)C(C)C)cc(OC)c1OC`, the midpoint of inhibition, the IC50, lay at 3.4 nM.

In the case of `CC(C)[C@H](NC(=O)CSc1ncccn1)C(=O)N[C@@H](Cc1ccccc1)[C@@H](O)[C@H](O)[C@H](Cc1ccccc1)NC(=O)[C@@H](NC(=O)CSc1ncccn1)C(C)C`, 16 nM corresponded to half-maximal inhibition (IC50).
